# Biological target: T1, human RXFP1 (Homo sapiens, UniProt Q9HBX9)
# T1 construct: expressed in transfected cells
# T1 sequence (Q9HBX9 1-757): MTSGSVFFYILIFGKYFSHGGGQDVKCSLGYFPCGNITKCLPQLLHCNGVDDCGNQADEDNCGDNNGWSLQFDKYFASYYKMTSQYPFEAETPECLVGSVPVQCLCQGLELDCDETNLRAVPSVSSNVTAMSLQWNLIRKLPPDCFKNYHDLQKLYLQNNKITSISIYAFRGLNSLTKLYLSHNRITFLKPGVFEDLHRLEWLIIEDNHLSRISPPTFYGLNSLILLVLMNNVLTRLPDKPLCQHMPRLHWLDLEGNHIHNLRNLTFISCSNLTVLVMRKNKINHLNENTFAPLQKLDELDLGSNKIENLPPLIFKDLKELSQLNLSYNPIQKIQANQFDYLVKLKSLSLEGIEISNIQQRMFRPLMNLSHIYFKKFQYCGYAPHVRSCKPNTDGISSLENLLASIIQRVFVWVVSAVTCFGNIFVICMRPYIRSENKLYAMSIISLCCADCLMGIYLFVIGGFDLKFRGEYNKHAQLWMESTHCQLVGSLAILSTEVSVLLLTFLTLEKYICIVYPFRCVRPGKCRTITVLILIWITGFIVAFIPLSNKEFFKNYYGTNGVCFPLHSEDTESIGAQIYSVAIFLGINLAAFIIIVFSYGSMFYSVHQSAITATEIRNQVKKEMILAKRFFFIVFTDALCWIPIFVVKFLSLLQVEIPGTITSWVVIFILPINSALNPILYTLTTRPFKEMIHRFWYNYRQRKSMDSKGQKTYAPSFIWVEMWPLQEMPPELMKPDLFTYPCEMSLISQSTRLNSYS
# Experiment: RXFP1 cAMP assay (hRXFP1 HEK293 cAMP assay, HTRF)
# Assay type: cell-based
# Conditions: HEK293 cells stably expressing human RXFP1, 30 min at room temperature
# Protocol: RXFP1 Cyclic Adenosine Monophosphate (cAMP) Assays. […] Cells were dissociated and suspended in assay buffer. The assay buffer was HBSS buffer (with calcium and magnesium) containing 20 mM HEPES, 0.05% BSA, and 0.5 mM IBMX. Cells (3000 cells per well, except 1500 cell per well for HEK293 cells stably expressing human RXFP1) were added to 384-well Proxiplates (Perkin-Elmer). Cells were immediately treated with test compounds in DMSO (2% final) at final concentrations in the range of 0.010 nM to 50 μM. Cells were incubated for 30 min at room temperature. The level of intracellular cAMP was determined using the HTRF HiRange cAMP assay reagent kit (Cisbio) according to manufacturer's instructions. Solutions of cryptate conjugated anti-cAMP and d2 fluorophore-labelled cAMP were made in a supplied lysis buffer separately. Upon completion of the reaction, the cells were lysed with equal volume of the d2-cAMP solution and anti-cAMP solution. […] The potency and activity of a compound to […] cAMP production was then determined by fitting to a 4-parametric logistic equation from a plot of cAMP level versus compound concentrations.
substance,measurement,value
"4-fluoro-3′-(1R,2R,3R,4R,Z)-3-((4-fluoro-3-(trifluoromethyl)phenyl)carbamoyl)-7-(2,2,2-trifluoroethylidene)bicyclo[2.2.1]heptan-2-yl)carbamoyl)-4′-methoxy-[1,1′-biphenyl]-3-carboxylic acid [Example 351]",EC50,2870 nM

# — US20250221966A1, “RXFP1 AGONISTS” (BRISTOL-MYERS SQUIBB COMPANY, priority 2021, published 2025)
